PubChem BioAssay (Tox21)
What follows is the remainder of the data, with few or none of the hits. Entries that show only a call come without a potency. Inconclusive results are not listed. The source made the active and inactive calls. Calls follow the shape of the dose curve; as a rule, active = well fitted activation curve with a large enough effect in the repeat runs; inconclusive = weak or mixed curves; inactive = flat fitted curve, though single readings scatter.

target: Nuclear receptor subfamily 1 group I member 2 (Homo sapiens) (UniProt O75469); assay: Human pregnane X receptor (PXR) activation by small molecules, qHTS assay (AID 1346985); conditions: DPX-2 HepG2 CYP3A4-luciferase, 24 h; series mostly up to 38.3 µM; also: nearly all actives have a fitted effect of over 40% in size
Potency is read from the fitted curve at half-maximal effect.

Structure (SMILES)	Potency
CC(N)CCCC(C)(C)O (configuration not stated)	inactive
NC(=O)NC1NC(=O)NC1=O (configuration not stated)	inactive
CC1=CC(=O)NS(=O)(=O)O1	inactive
NS(=O)(=O)Cc1noc2ccccc12	inactive
NC1=NCC2c3ccccc3Cc3ccccc3N12 (configuration not stated)	inactive
Cc1ncc[nH]1	inactive
CCn1cc(C(=O)O)c(=O)c2cnc(N3CCCC3)nc21	inactive
NCCNCCNCCN	inactive
O=C(O)CN(CCN(CC(=O)O)CC(=O)O)CC(=O)O	inactive
CC(=O)OCC1=C(C(=O)O)N2C(=O)[C@@H](NC(=O)CSc3ccncc3)[C@H]2SC1	inactive
ClC(Cl)Cl	inactive
O=C(NCCO[N+](=O)[O-])c1cccnc1	inactive
O=C(O)/C=C/c1ccc(Cn2ccnc2)cc1	inactive
COCCCOc1ccnc(CS(=O)c2nc3ccccc3[nH]2)c1C (configuration not stated)	active: 12.6 µM
COc1nc(N)nc2c1ncn2[C@@H]1O[C@H](CO)[C@@H](O)[C@@H]1O	inactive
CC(C(=O)O)c1ccc(C(=O)c2cccs2)cc1 (configuration not stated)	inactive
COc1c2occc2c(OC)c2c(=O)cc(C)oc12	inactive
CS(=O)(=O)Nc1ccc([N+](=O)[O-])cc1Oc1ccccc1	inactive
CO/N=C(/C(=O)N[C@@H]1C(=O)N2C(C(=O)O)=C(COC(N)=O)CS[C@H]12)c1ccco1	inactive
CN1C(=O)CC[C@H]1c1cccnc1	inactive
CCCCOCCOCCOCc1cc2c(cc1CCC)OCO2	inactive
CCCCc1ncc(/C=C(\Cc2cccs2)C(=O)O)n1Cc1ccc(C(=O)O)cc1	inactive
